# Where two headings read alike, the source gives them in different places.
# What was measured:
# SKNAS (WT) xenografts = conditions: 100 mg/kg/day oral gavage, 4 weeks, vs vehicle
# NBEBc1 (WT) xenografts = conditions: 100 mg/kg/day oral gavage, 4 weeks, vs vehicle
structure (smiles),measurement,setting,value
"C[C@@H](Oc1cc(-c2cnn(C3CCNCC3)c2)cnc1N)c1c(Cl)ccc(F)c1Cl [PF-02341066, crizotinib]",Tumor growth delay,SKNAS (WT) xenografts,no tumor growth delay
same,Tumor growth delay,SKNAS (WT) xenografts; listed as PF-2341066,neither a delay in tumor growth
same,Tumor growth delay,NBEBc1 (WT) xenografts,significant tumor growth delay
same,Tumor growth delay,NBEBc1 (WT) xenografts; listed as PF-2341066,significant delayed tumor progression

# From patent US10722578B2, “Methods and compositions for treating neuroblastoma” (The Children's Hospital of Philadelphia, priority 2008, dated 2020)
